Results taken from BindingDB's records for doi:10.1021/jm00029a008 (Dupont Pharmaceuticals, 1994).

Assay: Binding affinity for sigma receptor of guinea pig whole brain using [3H]-[…] radioligand

For `CN1CCC2(CCc3ccccc3C2=O)CC1` [1'-methylspiro[1,2,3,4-tetrahydronaphthalene-2,4'-(hexahydropyridine)]-1-one; hydrochloride], which Ki is on record?
The Ki was 1.04 µM.

With `O=C1c2c(F)cc(F)cc2CCC12CCN(CCc1ccccc1)CC2` [6,8-difluoro-1'-phenethylspiro[1,2,3,4-tetrahydronaphthalene-2,4'-(hexahydropyridine)]-1-one; fumarate] as the compound, how does the Ki read?
The Ki was 0.002 µM.

Structures can show the parent of a compound that is named as a salt.
